Laboratory results reported in US10688105B2 (dated 2020).

Test system: RAFLS p-gp over expression
Assay: MTT cytotoxicity assay, RAFLS overexpressed with P-gp
Conditions: RAFLS p-gp over expression vs RAFLS

SMILES	Resistant Factor
C[C@@H]1C[C@H]2[C@@H]3CCC4=CC(=O)C=C[C@]4(C)[C@@]3(F)[C@@H](O)C[C@]2(C)[C@@]1(O)C(=O)CO [Dexamethasone, dexamethasone]	3.33
C[C@]12C=CC(=O)C=C1CC[C@@H]1[C@@H]2[C@@H](O)C[C@@]2(C)[C@H]1CC[C@]2(O)C(=O)CO [Prednisolone, prednisolone]	1.76
